From patent US8318938B2, “Trans-fused chromenoisoquinolines synthesis and methods for use” (Purdue Research Foundation, priority 2006, dated 2012)
Several values for one entry are separate records, joined by “and”; a condition that tells them apart may be missing. Equal values may be shown once. Where a name gives a salt, the structure may show the parent alone.

The chains behind the UniProt entries cited, without tags or fusion partners.
UniProt P21728, whole entry: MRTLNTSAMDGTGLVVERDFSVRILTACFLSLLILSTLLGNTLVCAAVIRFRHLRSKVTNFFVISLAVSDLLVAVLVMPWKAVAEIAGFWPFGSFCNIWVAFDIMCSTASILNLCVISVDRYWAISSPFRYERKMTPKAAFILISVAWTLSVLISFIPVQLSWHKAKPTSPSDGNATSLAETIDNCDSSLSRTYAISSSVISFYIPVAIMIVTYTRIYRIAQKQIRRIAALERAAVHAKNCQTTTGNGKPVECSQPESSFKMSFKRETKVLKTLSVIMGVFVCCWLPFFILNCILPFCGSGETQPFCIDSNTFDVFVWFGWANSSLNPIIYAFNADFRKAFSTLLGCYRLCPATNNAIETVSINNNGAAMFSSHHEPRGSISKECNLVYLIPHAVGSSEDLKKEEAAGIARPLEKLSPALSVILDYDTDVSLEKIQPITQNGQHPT

Experiments:
[1] = biological target: endogenous human D1-like dopamine receptor in MCF7 cells (Homo sapiens, UniProt P21728); assay: cell-based; conditions: for EC50: read-out: EC50 (nM), Endogenous hD1, MCF7 cells, cyclic AMP accumulation, 15 min at 37° C. (FIG. 3A)
Experimental: The data presented in FIG. 2B are the mean±SEM of three independent experiments assayed in duplicate.
The data presented in FIGS. 3B-C are the mean±SEM of three independent experiments assayed in duplicate.
Cell Culture. […] Cells were grown at 37° C. in a humidified incubator with 6% CO2.
Cyclic AMP accumulation assay. Assays were performed on confluent monolayers of cells in 48-well plates. […] Cyclic AMP stimulation assays were performed on HEK D1-CRELuc or MCF7 cells by incubating the cells with ligands for 15 minutes at 37° C. Cyclic AMP inhibition assays were performed on HEK-α2C cells in the presence 30 μM forskolin to stimulate cyclic AMP formation. All assays were performed in the presence of 500 μM isobutylmethylxanthine (IBMX) and terminated with ice cold 3% trichloroacetic acid.
Cyclic AMP binding assay. […] Briefly, cellular lysate (15-20 μL) was added to cyclic AMP binding buffer (100 mM Tris-HCl, pH 7.4, 100 mM NaCl, 5 mM EDTA) in assay tubes containing 1 nM final concentration [^3H]cyclic AMP and bovine adrenal gland cyclic AMP binding protein (100-150 μg in 500 μl binding buffer). The binding assay was incubated on ice at 4° C. for 2-4 hours and terminated by harvesting with ice cold wash buffer (10 mM Tris, 0.9% NaCl) using a 96-well Packard Filtermate cell harvester and Millipore Multiscreen Harvest Plates (Millipore, Billerica, Mass., USA). Packard Microscint O (40 μL) was added to each well after drying. Radioactivity was counted using a Packard Topcount scintillation counter. Standard curves ranging from 0.01 to 300 pmol of cyclic AMP were used to determine the concentration of cyclic AMP in each sample. Data analysis was performed on GraphPad Prism software.

[2] = biological target: human dopamine D1 receptor (Homo sapiens, UniProt P21728); assay: Cyclic AMP accumulation in HEK cells stably expressing the human dopamine D1 receptor (cloned hD1); assay type: cell-based; conditions: 15 min at 37° C.

SMILES	EC50 [1]	EC50 [2]	Emax ([1]; MCF7, read-out: intrinsic activity relative to dopamine in MCF7 cells)
Cl.Oc1cc2c(cc1O)C1c3ccccc3CNC1CO2 (racemic) [(±)-ODHX, 2,3-Dihydroxy-6a,7,8,12b-tetrahydro-6H-chromeno[3,4-c]isoquinoline hydrochloride]	120 ± 30 nM		
Oc1cc2c(cc1O)[C@H]1c3ccccc3CN[C@@H]1CO2 [(+)-ODHX, (+)-(6aS,12bR)-2,3-Dihydroxy-6a,7,8,12b-tetrahydro-6H-chromeno[3,4-c]isoquinoline hydrochloride]	190 ± 22 nM	~50 nM and 53 nM	
Cl.Oc1cc2c(cc1O)[C@@H]1c3ccccc3CN[C@H]1CO2 [(−)-ODHX, (−)-(6aR,12bS)-2,3-Dihydroxy-6a,7,8,12b-tetrahydro-6H-chromeno[3,4-c]isoquinoline hydrochloride]	2860 ± 1990 nM	931 ± 99 nM	
Oc1cc2c(cc1O)C(c1ccccc1)CNCC2 (stereo not drawn) [SKF38393, reference compound]			~30%
